This experiment concerns the target cannabinoid CB1 (Homo sapiens, UniProt P21554). Description: Competition binding assay for cannabinoid CB1 affinity (3H-CP55,940 displacement, membranes). As to conditions: read-out: Ki values; competition with 0.5 nM 3H-CP55,940; Ki by Cheng-Prusoff; approximate values; receptor subtype not given.

The chains behind the UniProt entries cited, without tags or fusion partners.
UniProt P21554, whole entry: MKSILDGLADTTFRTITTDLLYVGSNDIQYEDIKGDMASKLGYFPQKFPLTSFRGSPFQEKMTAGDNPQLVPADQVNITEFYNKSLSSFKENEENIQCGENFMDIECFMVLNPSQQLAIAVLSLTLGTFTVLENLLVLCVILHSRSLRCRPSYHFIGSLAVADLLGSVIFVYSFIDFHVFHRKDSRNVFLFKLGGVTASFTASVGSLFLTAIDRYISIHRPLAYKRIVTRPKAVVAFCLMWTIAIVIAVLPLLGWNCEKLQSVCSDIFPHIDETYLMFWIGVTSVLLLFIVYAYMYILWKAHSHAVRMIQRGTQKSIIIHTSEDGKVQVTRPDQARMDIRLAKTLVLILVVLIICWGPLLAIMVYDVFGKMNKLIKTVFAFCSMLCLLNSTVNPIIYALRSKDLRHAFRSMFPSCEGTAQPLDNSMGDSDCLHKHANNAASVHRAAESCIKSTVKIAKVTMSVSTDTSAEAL

Regarding `O=C(NC[C@@H]1CC[C@@H](c2ccc(Cl)cc2Cl)N(c2ccc(Cl)cc2)C1)c1ccc(F)cc1`, the Ki (usually the dissociation constant of the complex between target and ligand, obtained from inhibition or displacement) worked out at 7 nM.

The record behind these values is US20070203183A1, “Diaryl piperidines as CB1 modulators” (Schering Corporation, priority 2006, published 2007).
